# Test results: patent EP4847020A1, “USE OF SMALL MOLECULE COMPOUND IN TREATMENT OF CARDIOVASCULAR DISEASES” (dated 2026)
# Protein sequences, listed by entry. Tags and fused reporters are not part of them.
# UniProt P05412, whole entry: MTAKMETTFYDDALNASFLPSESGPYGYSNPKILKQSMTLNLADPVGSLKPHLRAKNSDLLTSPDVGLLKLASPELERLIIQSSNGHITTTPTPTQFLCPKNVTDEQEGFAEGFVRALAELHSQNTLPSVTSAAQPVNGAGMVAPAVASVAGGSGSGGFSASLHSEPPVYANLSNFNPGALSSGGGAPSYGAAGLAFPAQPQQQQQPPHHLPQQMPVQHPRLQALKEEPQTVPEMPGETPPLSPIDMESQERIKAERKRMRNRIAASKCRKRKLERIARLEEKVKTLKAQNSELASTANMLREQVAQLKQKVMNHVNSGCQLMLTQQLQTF
# Legend:
# c-Jun/AP-1 = c-Jun/AP-1 (Homo sapiens, UniProt P05412); test: TransAM kit test of c-Jun transcription factor binding activity to DNA; conditions: remaining binding of c-Jun to dsDNA; lower binding activity = stronger inhibition; drugs tested at 500-31.25 µM, concentration of the tabulated value not stated
# Protocol: The binding ability of DNA to transcription factor was tested using TransAM kits (Active Motif 46096). The transcription factor was c-Jun/AP-1. Drugs at final concentrations of 500 µM, 250 µM, 125 µM, 62.5 µM, and 31.25 µM, along with 1 µL of cell extract containing the transcription factor, were sequentially added to a 96-well plate pre-coated with double-stranded DNA oligonucleotides. After incubation for 1 hour, the plate was incubated with an antibody against the c-JUN transcription factor. The absorbance at 450 nm was measured, with absorbance at 655 nm used as background. The binding activity of the dsDNA sequence to the transcription factor was measured. Lower binding activity indicates stronger inhibitory activity of compound.
# JUN transcription = test: Dual-luciferase reporter assay (pGL4.44[luc2P/AP1 RE/Hygro]) in PMA-stimulated 293T cells, inhibition of transcriptional activity; conditions: for Luc: PMA 10 ng/ml, PMA alone = 100.0%
# Protocol: 293T cells were passaged at a ratio of 1:3, plated, and incubated for 24 hours. The medium was replaced with antibiotic-free medium Opti-MEM (Gibco, 11058021). The 293T cells were transiently transfected with the luciferase reporter plasmid pGL4.44[luc2P/AP1 RE/Hygro] (Promega E411) and cultured for 24 hours. The cells were incubated for 1 hour in 1% PS/10% FBS/DMEM (Gibco, 11965092) containing the drugs at final concentrations of 50 µM, 25 µM, 12.5 µM, and 6.25 µM. Subsequently, the cells were stimulated with PMA (final concentration 10 ng/ml) (Sigma, 79346-5MG) and cultured for 34 hours. Lysates were measured using the Dual-Luciferase Reporter Assay System (Promega). Both the drugs and PMA were prepared as stock solutions in DMSO, diluted with culture medium, and added to the culture.
# HFpEF animal model = test: HFpEF mouse model (HFD + L-NAME), Example 2: therapeutic efficacy; conditions: 12 mg/kg per administration, every other day; 3-week point after the administration
# Protocol: The materials and reagents, animal experiment guidelines, and induction of heart failure with preserved ejection fraction model were the same as in Example 1.
# The administration method was as follows: After successful induction of the animal model, the model treatment group was treated with the compounds of the present invention (e.g., compounds T3, T5, T8 to T16) or T-5224. The model control group was treated with the drug-free vehicle as a control. Mice fed normally with food and water throughout the induction period served as the negative control. After the mice were raised to 5 to 8 weeks of age, drug treatment was initiated following echocardiography and Doppler imaging confirmation of successful model establishment. For the treatment groups, T3, T5, T8 to T16, and T-5224 were administered at a dose of 12 mg/kg per administration based on mouse body weight. Specifically, the compounds were administered every other day. Each time, 0.54 mg of the compound was dissolved in 100 µL of 0.5% PVP solution (in practice, the drug solution was prepared based on the number of mice. For example, for 14 mice, 8 mg of the compound was dissolved in 1.5 mL of solution, and each mouse received 100 µL of the solution). Drug treatment was initiated after successful model induction. The control group received an equal volume of 0.5% PVP solution, with all other treatments being the same.
structure (smiles),measurement,setting,value
CCOC(=O)CCc1cc(C(=O)c2ccc(OC3CCCC3)cc2O)ccc1OCc1ccc2nc[nH]c2c1,DNA Binding Activity (%),c-Jun/AP-1,103.4%
O=C(O)CCc1cc(C(=O)c2ccc(OC3CCCC3)cc2O)ccc1OCc1ccc(C(=O)O)cc1,Luc,JUN transcription; 6.25 µM,80.8%
same,Luc,JUN transcription; 12.5 µM,126.6%
same,Luc,JUN transcription; 25 µM,88.4%
same,Luc,JUN transcription; 50 µM,54.6%
same,activity in inhibiting JUN transcription (in words),JUN transcription; AP1 luciferase reporter,showed activity in inhibiting JUN transcription
same,inhibitory effect on disease progression,HFpEF animal model,significantly inhibited disease progression
same,DNA Binding Activity (%),c-Jun/AP-1,14.8%
CCOC(=O)c1ccc(COc2ccc(C(=O)c3ccc(OCC(C)C)cc3O)cc2CCC(=O)O)cc1,DNA Binding Activity (%),c-Jun/AP-1,42.9%
CC(C)COc1ccc(C(=O)c2ccc(OCc3ccc(C(=O)O)cc3)c(CCC(=O)O)c2)c(O)c1,DNA Binding Activity (%),c-Jun/AP-1,49.8%
O=C(O)CCc1cc(C(=O)c2ccc(OCc3ccccc3)cc2O)ccc1OCc1ccc(C(=O)O)cc1,DNA Binding Activity (%),c-Jun/AP-1,20.8%
